Assay results taken from US6087401A, “Cyclopentenones, process for preparing the same, and the use thereof” (Takara Shuzo Co., Ltd., priority 1996, dated 2000).

Test: stability of the cyclopentenone in solution (TLC)
Conditions: 25 mM in water or 10 mM tris-HCl (pH 7), one month, room temperature and 4° C.

In the case of `O=C1C=CC(O)C1O` (stereo not shown) [the cyclopentenone, 4,5-dihydroxy-2-cyclopenten-1-one], the stability is reported as “some decomposed matters after one month although mostly nondecomposed”.
